Assay results reported in patent US20090005437A1, “Alpha-Ketoglutarates and Their Use as Therapeutic Agents” (priority 2004, published 2009).

Test system: PHD (HIFα prolyl hydroxylase)
Experiment: In vitro PHD activity (hydroxylation of in vitro-translated HA-ODDD by cell extracts, gel shift on SDS-PAGE)
Type: biochemical, human
Conditions: HeLa cell extracts, α-ketoglutarate 0.1 to 1 mM in presence of 1 mM succinate

O=C(O)CCC(=O)C(=O)O [free α-ketoglutaric acid, 2-Oxo-pentanedioic acid]
PHD activity (production of hydroxylated HA-ODD): concentration-dependent stimulation of PHD activity
